From PubChem BioAssay (NCI)
Some tests of the compounds listed are not included; inactive here does not mean inactive elsewhere.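 Growth conditions: 96-well plates. Treatment: test compound, 48 hours, 5 concentrations. Analysis: linear interpolation between bracketing concentrations; unreached endpoints set to highest concentration. The concentration for full growth arrest is given as TGI.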

Columns and labels:
Experiment in all cases: NCI-60 cell line screen, 48 h
RPMI-8226 leukemia = tested on: RPMI-8226 leukemia
SN12C renal = tested on: SN12C renal
MDA-MB-435 = tested on: MDA-MB-435
HCT-116 colon = tested on: HCT-116 colon
UO-31 renal = tested on: UO-31 renal
SNB-75 CNS = tested on: SNB-75 CNS
NCI-H460 lung = tested on: NCI-H460 lung
CAKI-1 renal = tested on: CAKI-1 renal
MDA-N = tested on: MDA-N
KM12 colon = tested on: KM12 colon
SK-MEL-28 melanoma = tested on: SK-MEL-28 melanoma
SK-MEL-5 melanoma = tested on: SK-MEL-5 melanoma
HT29 colon = tested on: HT29 colon
OVCAR-4 ovarian = tested on: OVCAR-4 ovarian
SF-295 CNS = tested on: SF-295 CNS
U251 CNS = tested on: U251 CNS
DU-145 prostate = tested on: DU-145 prostate
HS 578T breast = tested on: HS 578T breast
SK-MEL-2 melanoma = tested on: SK-MEL-2 melanoma
COLO 205 colon = tested on: COLO 205 colon
NCI/ADR-RES ovarian = tested on: NCI/ADR-RES ovarian
TK-10 renal = tested on: TK-10 renal
IGROV1 ovarian = tested on: IGROV1 ovarian
SK-OV-3 ovarian = tested on: SK-OV-3 ovarian
SF-539 CNS = tested on: SF-539 CNS
RXF 393 renal = tested on: RXF 393 renal
UACC-257 melanoma = tested on: UACC-257 melanoma
MALME-3M melanoma = tested on: MALME-3M melanoma
SNB-19 CNS = tested on: SNB-19 CNS
SW-620 colon = tested on: SW-620 colon
OVCAR-8 ovarian = tested on: OVCAR-8 ovarian
OVCAR-3 ovarian = tested on: OVCAR-3 ovarian
HOP-92 NSCLC = tested on: HOP-92 NSCLC
OVCAR-5 ovarian = tested on: OVCAR-5 ovarian
MCF7 breast = tested on: MCF7 breast
MDA-MB-231 breast = tested on: MDA-MB-231 breast
EKVX NSCLC = tested on: EKVX NSCLC
UACC-62 melanoma = tested on: UACC-62 melanoma
786-0 renal = tested on: 786-0 renal
A549 NSCLC = tested on: A549 NSCLC
HCT-15 colon = tested on: HCT-15 colon
PC-3 prostate = tested on: PC-3 prostate
ACHN renal = tested on: ACHN renal
NCI-H522 lung = tested on: NCI-H522 lung
A498 renal = tested on: A498 renal
NCI-H322M lung = tested on: NCI-H322M lung
SF-268 CNS = tested on: SF-268 CNS
NCI-H23 lung = tested on: NCI-H23 lung
BT-549 breast = tested on: BT-549 breast
HOP-62 NSCLC = tested on: HOP-62 NSCLC
M14 melanoma = tested on: M14 melanoma
K-562 leukemia = tested on: K-562 leukemia
NCI-H226 lung = tested on: NCI-H226 lung
T-47D breast = tested on: T-47D breast

Measured: TGI

C=C(C)C#CC(O)(C(=O)OC1CCN(C)CC1)c1ccccc1 (centres undefined)
> 100 µM: all assays above
